# Antibody variant affinities, Ab-14 heavy chain, assay B

Data: MIT Lincoln Laboratory AlphaSeq set, Li et al. 2023, doi:10.1038/s41467-023-39022-2, as distributed in FLAb.

Binding partner: SARS-CoV-2 spike HR2 peptide, sequence PDVDLGDISGINAS.

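The starting antibody came from a phage panning campaign against this peptide. These sequences belong to a second round, designed from the earlier measurements on random variants of the parent. Group labels follow the data file (Ctrl: baseline library sampled from a position-specific scoring matrix, with some repeated check sequences; Rand: our label for a block that the file lists under HC and that is probably the random mutants of the ten best first-round binders; GP: Gaussian process model; GPLM: also part of the Gaussian process libraries; HC: hill climbing; Gen: genetic algorithm; Gibbs: Gibbs sampling; a sequence that several methods proposed may carry one label only). The assay is AlphaSeq: two haploid yeast populations carry antibody and antigen on their surface. After mating in shaken culture at 30 °C for 16 h, diploids were selected and their barcode pairs sequenced. A regression on co-assayed BCL2-family reference pairs converts the normalised counts of each replicate to an apparent Kd. The assay was run in six technical replicates.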

Parent: Ab-14, a human scFv built as VH, a 15-residue (Gly4Ser)3 linker, VL. Only the CDRs of the heavy chain vary.
VH: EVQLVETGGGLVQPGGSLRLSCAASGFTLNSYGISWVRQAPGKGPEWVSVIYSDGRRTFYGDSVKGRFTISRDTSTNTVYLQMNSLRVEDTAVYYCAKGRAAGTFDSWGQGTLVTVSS
VL: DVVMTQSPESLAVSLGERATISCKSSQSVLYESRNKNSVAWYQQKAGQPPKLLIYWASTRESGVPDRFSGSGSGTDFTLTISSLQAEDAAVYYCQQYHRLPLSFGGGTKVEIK

Each variant is given by its three heavy chain CDRs, as the data file delimits them; those of the parent are GFTLNSYGIS, VIYSDGRRTFYGDSVK, GRAAGTFDS. Variants here have at most six changes. The Kd shown is the geometric mean over detected replicates; a lower Kd is a better binder. A pair that was not seen in any replicate is written "nd"; this usually means weak binding, but a binder can also be missed. The authors' rule: three or more of the six replicates give a measured affinity, fewer mean a poor binder. The range of this assay differs from that of the first round, and the authors advise against merging the two. Nonspecific signal, from three strains lacking the peptide, appeared in 1% of pairings of all heavy chain designs, centred on 120 nM (5% of these signals below 7.0 nM); values are not corrected for it. The control count says in how many pairings with the empty strains this scFv gave a signal.

The variant GFTLNSYGIS, VIYSDGRRTFYGDSVR, GRAMGTFDS [Ctrl] gave nd (0 of 6 replicates; controls 0 of 18).
The variant GFTLNSYGIS, VIYSDGQRTFYGDSVK, GRAAGTFNN [Ctrl] gave nd (0 of 6 replicates; controls 0 of 18).
The variant GFELNEYGIS, VIYSDGRRTFYIDSVK, GNAAGTFDS [GP_Gen] gave 1.0 nM (6 of 6 replicates; controls 0 of 18).
The variant GFELNSYGIS, VIYSDGRRTFYGDSVK, GHAAGTFDK [GP_Gen] gave 8.5 nM (3 of 6 replicates; controls 0 of 18).
The variant GFTLNSYGIS, VIYSDGRRTFYSDDVK, GQTAGTFDS [GPLM_Gibbs] gave 700 pM (6 of 6 replicates; controls 0 of 18).
The variant GFSLNSYGIS, VIYSDGRRTFYGDNVK, GVNAGTFDS [GP_Gibbs] gave 1.5 nM (6 of 6 replicates; controls 0 of 18).
The variant GFSLNSYGIS, VIYSDGRRTFYGDSVK, GRAAGTDDS [Ctrl] gave nd (0 of 6 replicates; controls 0 of 18).
The variant GFTLNSYGIS, VIYSDGMRTFYVDSVK, GRTAGTFDS [GP_Gibbs] gave 690 nM (1 of 6 replicates; controls 0 of 18).
The variant GFSLNEYGIS, VIYSDGRRTFYSDSVK, GRTAGTFDK [GP_Gibbs] gave 420 pM (6 of 6 replicates; controls 0 of 18).
The variant GFTLNSYGIS, VIYSDGQRTFYGDSVK, GRAKDIFDS [Ctrl] gave nd (0 of 6 replicates; controls 0 of 18).
The variant GFDLNNYGIS, VIYSDGRRTFYGDNVK, ARAAGTFDS [Ctrl] gave nd (0 of 6 replicates; controls 1 of 18).
The variant GFCLNSYGIS, VIYSDGRRTFYGDSVK, GEAAGRFDS [Ctrl] gave nd (0 of 6 replicates; controls 0 of 18).
The variant KFDLNSYGIS, VIYSDGRRTFYDDSVK, GRQAGTFDS [GP_Gibbs] gave 4.7 nM (6 of 6 replicates; controls 0 of 18).
The variant GFTLNSYGIS, VIYADGRRTFYGDSVK, GQAAGTFKL [GPLM_HC] gave 72 nM (3 of 6 replicates; controls 0 of 18).
The variant GFTLNEYGIS, VIYSDGRRTFIGDSVK, DRAAGTFDS [Ctrl] gave nd (0 of 6 replicates; controls 0 of 18).
The variant GFDLNSYGIS, VIYSDGRRTFYGDSVK, GHAAGWFNS [Rand] gave nd (0 of 6 replicates; controls 0 of 18).
The variant GFWKSSYGIS, VIYSDGRRTFYGDSVK, GGAAGTSDS [Ctrl] gave nd (0 of 6 replicates; controls 1 of 18).
The variant GFALNSYGIS, VIYSDGRRTFYGDSVK, GRAQGTTDS [Ctrl] gave nd (0 of 6 replicates; controls 1 of 18).
The variant KFTLNSYGIS, VIYSDGRRTFYADSVK, GRAAGTFDS [Ctrl] gave 25 nM (3 of 6 replicates; controls 0 of 18).
The variant GFTLNSYGIS, VIYSDGRRTFYGDSVK, GEVAGTFDT [GPLM_Gen] gave 3.0 nM (6 of 6 replicates; controls 0 of 18).
The variant GFHLNSYGIS, VIYSDGRRTFYIDSVK, GHEAGTFDS [GP_Gibbs] gave 10 nM (6 of 6 replicates; controls 0 of 18).
The variant GFSLNSYGIS, VIYSDGRRTFYGDSVK, GSTAGTFDS [GPLM_Gen] gave 3.3 nM (6 of 6 replicates; controls 2 of 18).
The variant GFSLNSYGIS, VIYSDGRRTAYGDSVK, GHAAGTFDS [GPLM_Gibbs] gave 370 pM (6 of 6 replicates; controls 1 of 18).
The variant GFTLNSYGIT, VIYSDGRRTFYGDSVK, GRAAGTFWS [Ctrl] gave nd (0 of 6 replicates; controls 0 of 18).
The variant GFSLNEYGIS, VIYSDGRRTFYTDSVK, GEQAGTFDS [GP_HC] gave 1.6 nM (6 of 6 replicates; controls 0 of 18).
The variant GFDLNSYGIS, VIYSDGKRTFYGDSVK, GQAAGTFDS [GPLM_Gibbs] gave 2.7 nM (6 of 6 replicates; controls 0 of 18).
The variant KFTLNSYGIS, VIYSDGRRTFYGDSVK, GRAAGTFEV [Ctrl] gave nd (0 of 6 replicates; controls 0 of 18).
The variant TFTLNSYGIS, VIYSDGRRTFYGDKVK, GRLAGTFDS [Ctrl] gave 32 nM (1 of 6 replicates; controls 0 of 18).
The variant GFTLNSYGIS, VIYSDGRRTFYGDSVK, GRQMGTFDD [Ctrl] gave nd (0 of 6 replicates; controls 0 of 18).
The variant GFTLESYGIS, VIYSDGQRTFYADDVK, GRAAGTFDK [GP_Gibbs] gave 10 nM (6 of 6 replicates; controls 1 of 18).
The variant KFDLNSYGIS, VIYSDGRRTFYSDSVK, GRQAGTFDS [GP_Gen] gave 12 nM (6 of 6 replicates; controls 0 of 18).
The variant GFNLNSYGIS, VIYADGRRTFYGDSVK, GRTAGTFDS [GPLM_Gen] gave 960 pM (6 of 6 replicates; controls 0 of 18).
The variant GFTLNDYGIS, VIYSDGRRTFYGDSVK, GRCAGTFDT [GPLM_HC] gave 200 nM (3 of 6 replicates; controls 0 of 18).
The variant GETLNNYGIS, VIYSDGLRTFYSDSVK, GRAAFTFDS [Ctrl] gave nd (0 of 6 replicates; controls 1 of 18).
The variant GFLLNDYGIS, VIYSDGRRTFYKDSVK, GKAAGTFDS [GP_HC] gave 14 nM (6 of 6 replicates; controls 0 of 18).
The variant GFSLNSYGIS, VIYSDGRRTFYSDDVK, GKAAGTFDS [GPLM_Gibbs] gave 980 pM (6 of 6 replicates; controls 0 of 18).

For reference, 5 entries of the list once more:

{"CDR-H1": "GFTLNSYGIS", "CDR-H2": "VIYSDGQRTFYGDSVK", "CDR-H3": "GRAKDIFDS", "group": "Ctrl", "Kd (apparent)": "nd", "detected": "0/6", "signal with controls": "0/18"}
{"CDR-H1": "GFTLNDYGIS", "CDR-H2": "VIYSDGRRTFYGDSVK", "CDR-H3": "GRCAGTFDT", "group": "GPLM_HC", "Kd (apparent)": "200 nM", "detected": "3/6", "signal with controls": "0/18"}
{"CDR-H1": "GFSLNSYGIS", "CDR-H2": "VIYSDGRRTAYGDSVK", "CDR-H3": "GHAAGTFDS", "group": "GPLM_Gibbs", "Kd (apparent)": "370 pM", "detected": "6/6", "signal with controls": "1/18"}
{"CDR-H1": "GFTLNSYGIS", "CDR-H2": "VIYADGRRTFYGDSVK", "CDR-H3": "GQAAGTFKL", "group": "GPLM_HC", "Kd (apparent)": "72 nM", "detected": "3/6", "signal with controls": "0/18"}
{"CDR-H1": "KFDLNSYGIS", "CDR-H2": "VIYSDGRRTFYDDSVK", "CDR-H3": "GRQAGTFDS", "group": "GP_Gibbs", "Kd (apparent)": "4.7 nM", "detected": "6/6", "signal with controls": "0/18"}